Drawing on ChEMBL document CHEMBL4177610, “Discovery of a novel 2,4-dimethylquinoline-6-carboxamide M4 positive allosteric modulator (PAM) chemotype via scaffold hopping” (Bioorg Med Chem Lett, 2017), this text covers EC50 for 1 compound.

Amino acid sequences for entries named in this document (tags omitted).
UniProt P08485, whole entry: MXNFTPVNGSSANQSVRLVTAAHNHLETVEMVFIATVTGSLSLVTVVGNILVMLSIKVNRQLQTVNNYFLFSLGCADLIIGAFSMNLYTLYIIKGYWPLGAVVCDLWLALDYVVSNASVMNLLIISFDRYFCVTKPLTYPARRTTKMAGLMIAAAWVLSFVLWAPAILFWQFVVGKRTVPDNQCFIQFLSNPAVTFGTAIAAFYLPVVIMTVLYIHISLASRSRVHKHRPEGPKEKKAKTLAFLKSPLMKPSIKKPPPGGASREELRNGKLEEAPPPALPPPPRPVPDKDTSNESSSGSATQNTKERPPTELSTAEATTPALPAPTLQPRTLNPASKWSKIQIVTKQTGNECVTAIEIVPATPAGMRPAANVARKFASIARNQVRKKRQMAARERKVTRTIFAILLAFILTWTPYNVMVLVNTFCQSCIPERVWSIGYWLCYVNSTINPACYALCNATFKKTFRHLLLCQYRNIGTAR

Each structure is given as a SMILES string.

The test deals with Muscarinic acetylcholine receptor M4 (Rattus norvegicus, UniProt P08485). Description: Positive allosteric modulation of rat M4 receptor expressed in CHO cells co-expressing Gqi5 assessed as increase in acetylcholine-induced calcium mobilization. The class given is functional, cell-based. Background: A change in cytosolic calcium serves as a functional read-out for many receptors and channels.

The EC50 is the concentration at which the effect is half-maximal. For the compound `Cc1nnc2sc(C(=O)NCc3ccc(S(=O)(=O)C(F)(F)F)cc3)c(N)c2c1C`, the EC50 was 225 nM.
